This is an account of results in US9090618B2, “Substituted benzimidazole-type piperidine compounds and uses thereof” (dated 2015).

A value given as a limit tells only on which side of the number the result lay.

In the first test the target is T1, human opioid receptor-like (ORL-1) (Homo sapiens (Human), UniProt P41146). In words: In vitro ORL-1 receptor [35S]GTPγS functional assay.
Settings: not given
On the technique in general: GTPγS resists hydrolysis and so accumulates on activated G proteins.
Consider `c1ccc2c(c1)nc([C@H]1CCCN1)n2[C@H]1C[C@H]2CCC[C@@H](C1)N2[C@@H]1C[C@@H]2CCCC[C@@H](C2)C1`, for which the concentration giving a half-maximal response (EC50) was 23.2 nM.

With `c1ccc2c(c1)nc(-c1cc[nH]n1)n2[C@H]1C[C@H]2CCC[C@@H](C1)N2[C@@H]1C[C@@H]2CCCC[C@@H](C2)C1`, the concentration giving a half-maximal response (EC50) turned out to be 10.4 nM.

`O=C(O)CN1CCC[C@H](c2nc3ccccc3n2[C@H]2C[C@H]3CCC[C@@H](C2)N3[C@H]2C[C@@H]3CCC[C@@H](C3)C2)C1` had an EC50 of 1030 nM.

`CCN(CC)C(=O)CN1CC[C@@H](Cc2nc3ccccc3n2[C@H]2C[C@H]3CCC[C@@H](C2)N3[C@@H]2C[C@@H]3CCCC[C@@H](C3)C2)C1`: the EC50 is 28.4 nM.

`O=C(O)CCN1CCC[C@@H]1c1nc2ccccc2n1[C@H]1C[C@H]2CCC[C@@H](C1)N2[C@@H]1C[C@@H]2CCCC[C@@H](C2)C1` had an EC50 of 139 nM.

In the case of `O=C(O)CN1CCC[C@H](c2nc3ccccc3n2[C@H]2C[C@H]3CCC[C@@H](C2)N3[C@@H]2C[C@@H]3CCCC[C@@H](C3)C2)C1`, the EC50 is 95 nM.

Compound `c1ccc2c(c1)nc(C[C@H]1COCCN1)n2[C@H]1C[C@H]2CCC[C@@H](C1)N2[C@@H]1C[C@@H]2CCCC[C@@H](C2)C1` registered a 50% effective concentration (EC50) of 17 nM.

Compound `CCOC(=N)/N=c1\[nH]c2ccccc2n1C1CCN(C2CCCCCCC2)CC1` gave a concentration giving a half-maximal response (EC50) of 46.7 nM.

`O=C(O)CCN1CC[C@@H](Cc2nc3ccccc3n2[C@H]2C[C@H]3CCC[C@@H](C2)N3[C@@H]2C[C@@H]3CCCC[C@@H](C3)C2)C1`: the 50% effective concentration (EC50) came out at 62.5 nM.

In turn, `O=C(O)CN1CCC(Cc2nc3ccccc3n2C2CC3CCCC(C2)N3C2CC3CCCCC(C3)C2)C1` (centres unmarked) yielded a 50% effective concentration (EC50) of 43.1 nM.

Still in this test, the particulars now being: ORL-1 receptor activity response, procedure of Example 22.
As for `c1ccc2c(c1)nc([C@H]1CCCN1)n2[C@H]1C[C@H]2CCC[C@@H](C1)N2[C@@H]1C[C@@H]2CCCC[C@@H](C2)C1`, the “GTPγS ORL-1 Emax [mean ± SEM]” value is 98.3 ± 2.0%.

On to `c1ccc2c(c1)nc(-c1cc[nH]n1)n2[C@H]1C[C@H]2CCC[C@@H](C1)N2[C@@H]1C[C@@H]2CCCC[C@@H](C2)C1`, for which the “GTPγS ORL-1 Emax [mean ± SEM]” value is given as 31.7 ± 0.9%.

As for `O=C(O)CN1CCC[C@H](c2nc3ccccc3n2[C@H]2C[C@H]3CCC[C@@H](C2)N3[C@H]2C[C@@H]3CCC[C@@H](C3)C2)C1`, the “GTPγS ORL-1 Emax [mean ± SEM]” value is listed as 31.3 ± 2.7%.

Take `CCN(CC)C(=O)CN1CC[C@@H](Cc2nc3ccccc3n2[C@H]2C[C@H]3CCC[C@@H](C2)N3[C@@H]2C[C@@H]3CCCC[C@@H](C3)C2)C1`: the “GTPγS ORL-1 Emax [mean ± SEM]” value was 31.7 ± 3.3%.

Turning to `O=C(O)CCN1CCC[C@@H]1c1nc2ccccc2n1[C@H]1C[C@H]2CCC[C@@H](C1)N2[C@@H]1C[C@@H]2CCCC[C@@H](C2)C1`, the “GTPγS ORL-1 Emax [mean ± SEM]” value was found to be 49.7 ± 9.3%.

Take `O=C(O)CN1CCC[C@H](c2nc3ccccc3n2[C@H]2C[C@H]3CCC[C@@H](C2)N3[C@@H]2C[C@@H]3CCCC[C@@H](C3)C2)C1`: the “GTPγS ORL-1 Emax [mean ± SEM]” value is recorded as 66.7 ± 5.5%.

In the case of `c1ccc2c(c1)nc(C[C@H]1COCCN1)n2[C@H]1C[C@H]2CCC[C@@H](C1)N2[C@@H]1C[C@@H]2CCCC[C@@H](C2)C1`, the “GTPγS ORL-1 Emax [mean ± SEM]” value is recorded as 61.3 ± 1.5%.

As to `CCOC(=N)/N=c1\[nH]c2ccccc2n1C1CCN(C2CCCCCCC2)CC1`, the “GTPγS ORL-1 Emax [mean ± SEM]” value turned out to be 106.3 ± 8.8%.

Turning to `O=C(O)CCN1CC[C@@H](Cc2nc3ccccc3n2[C@H]2C[C@H]3CCC[C@@H](C2)N3[C@@H]2C[C@@H]3CCCC[C@@H](C3)C2)C1`, the “GTPγS ORL-1 Emax [mean ± SEM]” value is given as 63.3 ± 3.8%.

`O=C(O)CN1CCC(Cc2nc3ccccc3n2C2CC3CCCC(C2)N3C2CC3CCCCC(C3)C2)C1` (centres unmarked): the “GTPγS ORL-1 Emax [mean ± SEM]” value is on record as 51.7 ± 1.7%.

The target of another test is human μ-receptors (Homo sapiens (Human), UniProt P35372). Kind of test: In vitro mu-opioid receptor [35S]GTPγS functional assay.
Settings: not given
`c1ccc2c(c1)nc(-c1cc[nH]n1)n2[C@H]1C[C@H]2CCC[C@@H](C1)N2[C@@H]1C[C@@H]2CCCC[C@@H](C2)C1`: the half-maximal effective concentration (EC50) was 466 nM.

Consider `CCOC(=N)/N=c1\[nH]c2ccccc2n1C1CCN(C2CCCCCCC2)CC1`, for which the EC50 was 3810 nM.

Another test concerns the target T2, kappa opioid receptor (Homo sapiens (Human), UniProt P41145). Kind of test: In vitro kappa-opioid receptor [35S]GTPγS functional assay.
Settings: not given
`c1ccc2c(c1)nc(-c1cc[nH]n1)n2[C@H]1C[C@H]2CCC[C@@H](C1)N2[C@@H]1C[C@@H]2CCCC[C@@H](C2)C1`: the EC50 is > 20000 nM.

As for `CCN(CC)C(=O)CN1CC[C@@H](Cc2nc3ccccc3n2[C@H]2C[C@H]3CCC[C@@H](C2)N3[C@@H]2C[C@@H]3CCCC[C@@H](C3)C2)C1`, the concentration for a half-maximal effect (EC50) was > 20000 nM.

On to `O=C(O)CCN1CCC[C@@H]1c1nc2ccccc2n1[C@H]1C[C@H]2CCC[C@@H](C1)N2[C@@H]1C[C@@H]2CCCC[C@@H](C2)C1`, for which the concentration giving a half-maximal response (EC50) was > 20000 nM.

`O=C(O)CN1CCC[C@H](c2nc3ccccc3n2[C@H]2C[C@H]3CCC[C@@H](C2)N3[C@@H]2C[C@@H]3CCCC[C@@H](C3)C2)C1`: the concentration for a half-maximal effect (EC50) is > 20000 nM.

For the compound `c1ccc2c(c1)nc(C[C@H]1COCCN1)n2[C@H]1C[C@H]2CCC[C@@H](C1)N2[C@@H]1C[C@@H]2CCCC[C@@H](C2)C1`, the half-maximal effective concentration (EC50) is > 20000 nM.

In turn, `CCOC(=N)/N=c1\[nH]c2ccccc2n1C1CCN(C2CCCCCCC2)CC1` displayed a 50% effective concentration (EC50) of 721 nM.

Turning to `O=C(O)CCN1CC[C@@H](Cc2nc3ccccc3n2[C@H]2C[C@H]3CCC[C@@H](C2)N3[C@@H]2C[C@@H]3CCCC[C@@H](C3)C2)C1`, the 50% effective concentration (EC50) was > 20000 nM.

Regarding `O=C(O)CN1CCC(Cc2nc3ccccc3n2C2CC3CCCC(C2)N3C2CC3CCCCC(C3)C2)C1` (centres unmarked), the concentration giving a half-maximal response (EC50) was > 20000 nM.

The target in another test is T1, human opioid receptor-like (ORL-1). Kind of test: In vitro ORL-1 receptor binding assay ([3H]-nociceptin displacement).
Settings: not given
In the case of `c1ccc2c(c1)nc([C@H]1CCCN1)n2[C@H]1C[C@H]2CCC[C@@H](C1)N2[C@@H]1C[C@@H]2CCCC[C@@H](C2)C1`, the inhibition constant (Ki) stood at 1.9 nM.

The next test addresses T2, kappa opioid receptor. In words: In vitro kappa-opioid receptor binding assay ([3H]-U69,593 displacement).
Settings: not given
On to `O=C(O)CN1CCC(Cc2nc3ccccc3n2C2CC3CCCC(C2)N3C2CC3CCCCC(C3)C2)C1` (centres unmarked), for which the Ki came to 344 nM.

The target in another test is human μ-opioid receptors (Homo sapiens (Human), UniProt P35372). In words: In vitro mu-opioid receptor binding assay ([3H]-diprenorphine displacement).
Settings: not given
In the case of `O=C(O)CN1CCC[C@H](c2nc3ccccc3n2[C@H]2C[C@H]3CCC[C@@H](C2)N3[C@H]2C[C@@H]3CCC[C@@H](C3)C2)C1`, the inhibition constant (Ki) was > 20000 nM.

For `O=C(O)CN1CCC(Cc2nc3ccccc3n2C2CC3CCCC(C2)N3C2CC3CCCCC(C3)C2)C1` (centres unmarked), the Ki was 4010 nM.

In another test the target is recombinant delta opioid receptor expressed in CHO-K1 cells (Homo sapiens (Human), UniProt P41143). In words: In vitro delta-opioid receptor binding assay ([3H]-Naltrindole displacement).
Settings: not given
As to `O=C(O)CN1CCC[C@H](c2nc3ccccc3n2[C@H]2C[C@H]3CCC[C@@H](C2)N3[C@H]2C[C@@H]3CCC[C@@H](C3)C2)C1`, the inhibition constant Ki is > 20000 nM.

As to `CCN(CC)C(=O)CN1CC[C@@H](Cc2nc3ccccc3n2[C@H]2C[C@H]3CCC[C@@H](C2)N3[C@@H]2C[C@@H]3CCCC[C@@H](C3)C2)C1`, the Ki was > 20000 nM.

As to `O=C(O)CCN1CCC[C@@H]1c1nc2ccccc2n1[C@H]1C[C@H]2CCC[C@@H](C1)N2[C@@H]1C[C@@H]2CCCC[C@@H](C2)C1`, the Ki was > 20000 nM.

For the compound `O=C(O)CN1CCC[C@H](c2nc3ccccc3n2[C@H]2C[C@H]3CCC[C@@H](C2)N3[C@@H]2C[C@@H]3CCCC[C@@H](C3)C2)C1`, the inhibitory constant (Ki) is > 20000 nM.

As for `c1ccc2c(c1)nc(C[C@H]1COCCN1)n2[C@H]1C[C@H]2CCC[C@@H](C1)N2[C@@H]1C[C@@H]2CCCC[C@@H](C2)C1`, the inhibition constant Ki is > 20000 nM.

On to `O=C(O)CCN1CC[C@@H](Cc2nc3ccccc3n2[C@H]2C[C@H]3CCC[C@@H](C2)N3[C@@H]2C[C@@H]3CCCC[C@@H](C3)C2)C1`, for which the inhibition constant Ki was > 20000 nM.

`O=C(O)CN1CCC(Cc2nc3ccccc3n2C2CC3CCCC(C2)N3C2CC3CCCCC(C3)C2)C1` (centres unmarked): the inhibition constant Ki was > 20000 nM.

As usually defined, the EC50 is the concentration giving half of the maximal effect. High values mean a need for much substance, low ones an effect from little substance. The Ki is the equilibrium dissociation constant of an inhibitor or competing ligand from its target.
